The entries are a selection whose mix differs from that of the whole data set. Some of these compounds have results that are not shown, active ones among them. Activity calls are given as the source filed them.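 The calls were made as follows: active = inhibition above the mean plus 3 SD of all compounds in the same screening run (cut at about 4.5% in these data); inactive = the rest.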
The compounds below were run on metallo-beta-lactamase IMP-1 (Pseudomonas aeruginosa) (assay: inhibition of IMP-1 nitrocefin hydrolysis – biochemical, epi-absorbance readout, Pseudomonas aeruginosa enzyme, primary screen (AID 1556;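 also: 0% = IMP-1 with DMSO and 100% = DMSO wells lacking enzyme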)). Conditions: purified IMP-1, nitrocefin hydrolysis, epi-absorbance fluorescence; at 5.6 µM; active compounds read high.
In short: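 System – purified recombinant IMP-1 beta-lactamase · Input – IMP-1 dispensed at 0.2 nM · Timing – 15 min preincubation plus 25 min reaction at 25 °C · Signal – Epi-absorbance fluorescence, 480 nm excitation, 530 nm emission · Measure – percent IMP-1 inhibition derived from blank-referenced optical density · Controls – Enzyme-plus-DMSO low control, enzyme-free DMSO high control · Replication – singlicate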

| SMILES | inhibition |
| --- | --- |
| CN(C)c1ccc(C(=O)NCC2(N(C)C)CCCCC2)cc1 | inactive: -2.23% |
| CN(C)C1CCCC1OC(=O)C(O)(c1ccccc1)c1ccccc1 (centres undefined) | inactive: -5.49% |
| Cc1ccccc1C(=O)NCC1(N2CCCCC2)CCCCC1 | inactive: -3.2% |
| COc1ccc(C(=O)NCC2(N(C)C)CCCCC2)cc1 | inactive: -0.21% |
| O=C(NCC1(N2CCCCC2)CCCCC1)c1cccc(Br)c1 | inactive: -1.96% |
| CCN1CCCC(OC(=O)C2(O)c3ccccc3C=Cc3ccccc32)C1 (centres undefined) | inactive: 1.31% |
| Cc1cc(C(=O)NCC2(N3CCCCC3)CCCCC2)ccc1[N+](=O)[O-] | inactive: -2.87% |
| O=C(NCC1(N2CCCCC2)CCCCC1)c1cc(F)c(F)cc1Cl | inactive: -1.49% |
| C=CCN1CCN(CCOC(=O)C(O)(c2ccccc2)c2ccccc2)CC1 | inactive: -1.84% |
| CN1[C@@H]2CC[C@H]1CC(OC(=O)C(O)(c1ccccc1)c1ccccc1)C2 (some centres undefined) | inactive: -3.05% |
| O=C(NCC1(N2CCCCC2)CCCCC1)c1cc([N+](=O)[O-])ccc1Cl | inactive: -0.81% |
| Cc1ccc(C(=O)NCC2(N3CCCCC3)CCCCC2)cc1 | inactive: -0.59% |
| COc1cc(SC)ccc1C(=O)NCC1(N(C)C)CCCCC1 | inactive: 0.17% |
| CCN(CC)CC(C)C(C)OC(=O)C(O)(c1ccccc1)c1ccccc1 (centres undefined) | inactive: -1.58% |
| CC(C)N1C(=O)CC2(CCN(CCOC(=O)C(O)(c3ccccc3)c3ccccc3)CC2)C1=O | inactive: -0.91% |
| O=C(OC1CN2CCC1CC2)C(CO)(c1ccccc1)c1ccccc1 (centres undefined) | inactive: -2.59% |
| CC(C)Oc1ccc(C(=O)NCC2(N(C)C)CCCCC2)cc1 | inactive: -0.33% |
| CN(C)c1cccc(C(=O)NCC2(N(C)C)CCCCC2)c1 | inactive: -1.72% |
| COc1ccc(Br)c(C(=O)NCC2(N3CCCCC3)CCCCC2)c1 | inactive: 0.37% |
| COc1cc(C(=O)NCC2(N(C)C)CCCCC2)c([N+](=O)[O-])cc1OC | inactive: 0.92% |
| CN(C)C1(CNC(=O)c2ccc(Br)cc2)CCCCC1 | inactive: -2.99% |
| O=C(NCC1(N2CCCCC2)CCCCC1)c1cccc(Cl)c1 | inactive: -1.29% |
| COc1ccc(Cl)cc1C(=O)NCC1(N(C)C)CCCCC1 | inactive: -1.2% |
| COc1cccc(C(=O)NCC2(N3CCCCC3)CCCCC2)c1 | inactive: -2.42% |

Reference: PubChem BioAssay AID1556 (The Scripps Research Institute Molecular Screening Center, 2009)
